These results are taken from paper PMC8324913, “Development of a CNS-permeable reactivator for nerve agent exposure: an iterative, multi-disciplinary approach” (2021).

The chains behind the UniProt entries cited, without tags or fusion partners. Residues count along the entry.
UniProt P08183, whole entry, looked up: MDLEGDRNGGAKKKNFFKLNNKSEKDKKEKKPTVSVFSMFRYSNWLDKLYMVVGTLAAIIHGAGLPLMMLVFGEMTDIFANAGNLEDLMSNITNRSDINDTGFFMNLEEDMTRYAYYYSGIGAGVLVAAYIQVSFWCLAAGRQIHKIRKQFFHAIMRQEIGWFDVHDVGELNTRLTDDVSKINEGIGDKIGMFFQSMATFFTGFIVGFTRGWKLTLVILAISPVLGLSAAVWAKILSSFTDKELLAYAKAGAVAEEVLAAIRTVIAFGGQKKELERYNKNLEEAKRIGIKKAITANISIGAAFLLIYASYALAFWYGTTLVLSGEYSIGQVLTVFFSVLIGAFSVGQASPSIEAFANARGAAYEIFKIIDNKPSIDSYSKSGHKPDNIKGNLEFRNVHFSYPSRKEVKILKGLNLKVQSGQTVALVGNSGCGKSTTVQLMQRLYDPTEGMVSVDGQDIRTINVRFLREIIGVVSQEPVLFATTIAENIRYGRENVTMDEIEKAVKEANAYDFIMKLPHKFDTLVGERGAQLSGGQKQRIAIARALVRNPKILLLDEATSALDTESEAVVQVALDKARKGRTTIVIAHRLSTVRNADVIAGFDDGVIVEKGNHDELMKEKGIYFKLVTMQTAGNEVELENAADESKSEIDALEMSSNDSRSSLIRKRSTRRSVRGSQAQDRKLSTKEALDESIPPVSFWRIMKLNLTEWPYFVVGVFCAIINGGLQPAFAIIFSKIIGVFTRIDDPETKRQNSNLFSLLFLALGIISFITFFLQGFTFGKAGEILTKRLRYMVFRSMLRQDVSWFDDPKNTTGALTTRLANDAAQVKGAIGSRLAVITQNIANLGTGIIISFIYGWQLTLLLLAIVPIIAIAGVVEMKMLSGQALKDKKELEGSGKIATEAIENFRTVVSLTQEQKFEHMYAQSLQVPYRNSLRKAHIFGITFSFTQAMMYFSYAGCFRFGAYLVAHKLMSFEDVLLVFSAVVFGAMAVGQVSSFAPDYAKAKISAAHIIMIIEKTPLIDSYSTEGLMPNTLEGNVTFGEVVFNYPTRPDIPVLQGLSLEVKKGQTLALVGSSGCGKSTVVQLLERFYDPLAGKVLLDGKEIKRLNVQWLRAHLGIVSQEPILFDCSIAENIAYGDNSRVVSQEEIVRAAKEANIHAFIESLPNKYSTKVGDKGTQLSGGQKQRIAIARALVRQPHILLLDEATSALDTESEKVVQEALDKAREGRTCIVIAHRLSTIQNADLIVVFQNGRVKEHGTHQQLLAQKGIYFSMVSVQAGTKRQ
UniProt P10635, whole entry, looked up: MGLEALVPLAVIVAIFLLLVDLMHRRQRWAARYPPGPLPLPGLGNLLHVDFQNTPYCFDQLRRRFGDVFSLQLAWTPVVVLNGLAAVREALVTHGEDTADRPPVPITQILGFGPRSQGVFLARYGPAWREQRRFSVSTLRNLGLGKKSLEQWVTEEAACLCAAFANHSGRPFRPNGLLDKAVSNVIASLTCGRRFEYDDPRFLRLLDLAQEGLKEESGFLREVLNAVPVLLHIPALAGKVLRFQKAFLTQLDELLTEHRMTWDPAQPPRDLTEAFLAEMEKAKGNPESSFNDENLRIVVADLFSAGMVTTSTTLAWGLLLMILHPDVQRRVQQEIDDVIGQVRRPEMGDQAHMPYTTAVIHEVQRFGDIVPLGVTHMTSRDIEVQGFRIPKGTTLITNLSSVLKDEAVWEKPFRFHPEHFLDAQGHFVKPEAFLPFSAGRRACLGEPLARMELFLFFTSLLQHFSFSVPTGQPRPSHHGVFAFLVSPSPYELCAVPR
UniProt P08684, whole entry, looked up: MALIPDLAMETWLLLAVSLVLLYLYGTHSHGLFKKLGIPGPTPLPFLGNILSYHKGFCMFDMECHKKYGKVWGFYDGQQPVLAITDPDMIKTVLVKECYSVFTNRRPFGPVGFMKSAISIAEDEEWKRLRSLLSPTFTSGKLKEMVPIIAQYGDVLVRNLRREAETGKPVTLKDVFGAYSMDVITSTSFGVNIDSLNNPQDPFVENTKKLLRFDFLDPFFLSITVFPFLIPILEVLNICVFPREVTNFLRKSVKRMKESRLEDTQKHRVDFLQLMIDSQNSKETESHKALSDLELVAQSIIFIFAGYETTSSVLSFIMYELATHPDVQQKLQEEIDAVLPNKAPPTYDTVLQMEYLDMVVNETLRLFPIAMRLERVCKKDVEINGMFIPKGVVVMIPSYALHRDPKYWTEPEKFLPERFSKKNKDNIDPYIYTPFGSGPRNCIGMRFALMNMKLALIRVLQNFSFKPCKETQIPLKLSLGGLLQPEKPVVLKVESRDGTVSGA
UniProt P22303, 32-614 limits assumed: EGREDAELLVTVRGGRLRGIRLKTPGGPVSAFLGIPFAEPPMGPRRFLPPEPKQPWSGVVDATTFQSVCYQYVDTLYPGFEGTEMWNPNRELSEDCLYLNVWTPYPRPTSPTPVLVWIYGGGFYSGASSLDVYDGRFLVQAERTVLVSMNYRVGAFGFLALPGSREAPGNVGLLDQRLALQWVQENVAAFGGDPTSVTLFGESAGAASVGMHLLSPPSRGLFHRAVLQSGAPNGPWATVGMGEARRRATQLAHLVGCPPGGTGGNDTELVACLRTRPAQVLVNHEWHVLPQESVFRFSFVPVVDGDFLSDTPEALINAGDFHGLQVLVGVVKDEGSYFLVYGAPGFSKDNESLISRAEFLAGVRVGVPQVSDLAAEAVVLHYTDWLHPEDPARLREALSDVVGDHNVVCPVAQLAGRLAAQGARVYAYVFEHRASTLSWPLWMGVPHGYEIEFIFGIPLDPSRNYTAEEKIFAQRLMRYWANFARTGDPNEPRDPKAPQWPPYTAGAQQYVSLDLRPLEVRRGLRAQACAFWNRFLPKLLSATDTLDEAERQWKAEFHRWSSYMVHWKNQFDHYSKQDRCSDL

Where two headings read alike, the source gives them in different places.

A short description of data set [1]: PAMPA passive diffusion assay. Conditions: for PAMPA Peff (mean): 100 μM in HBSS, 5 h, 25 °C, 0* = below UPLC limit of detection, shown as zero. On the technique in general: The PAMPA barrier holds no transporters, so it reflects passive diffusion.
For data set [2], the target named is p-glycoprotein (MDR1) (Homo sapiens, UniProt P08183). Briefly: MDR1-MDCK efflux assay. Conditions: 100 μM, 180 min, 37 °C, NFR > 1 = possible substrate.
Data set [3] has as its system HCMEC/D3 monolayer. Briefly: HCMEC brain endothelial cell traversal. Conditions: for HCMEC Peff (mean): 100 μM in HBSS, apical to basolateral.
For data set [4] the following is noted: reported for RS-194B; cited from earlier work.
Data set [5] in a line: Biodistribution and brain penetration.
Data set [6] can be described thus: Plasma stability. Conditions: human plasma, 1 hour at 37 °C; > 85% good.
Data set [7] is described as follows: Microsomal stability (substrate depletion). As to conditions: human liver microsomes, 1 hour at 37 °C; >30 min good. (In general: Microsomes from liver hold many membrane-bound enzymes, among them those of drug oxidation.)
Data set [8] can be described thus: In vivo plasma pharmacokinetics. As to conditions: for t1/2α: plasma, mean of six ± SE.
For data set [9], the target named is CYP2D6 (Homo sapiens, UniProt P10635). As to the kind of experiment: Cytochrome P450 inhibition, fluorescent substrates. Conditions: read-out: P450 inhibition IC50, CYP2D6/AMMC; fluorescent substrate AMMC, 37 °C.
Data set [10] has as its target CYP3A4 (Homo sapiens, UniProt P08684). Briefly: Cytochrome P450 inhibition, fluorescent substrates. As to conditions: read-out: P450 inhibition IC50, CYP3A4/BFC; fluorescent substrate BFC, 37 °C.
Data set [11] has as its target NIMP-adducted acetylcholinesterase (Homo sapiens, UniProt P22303). As to the kind of experiment: Acetylcholinesterase reactivation screening (modified Ellman's assay). As to conditions: 100 µM oxime, NIMP-adducted AChE, fraction relative to control AChE. Background: In Ellman's method for cholinesterases, released thiocholine reacts with DTNB.
Data set [12] has as its target VX-adducted recombinant human AChE (Homo sapiens, UniProt P22303). Conditions: historical data, identical conditions except DMSO; cited from earlier work.
For data set [13], the target named is GB-adducted recombinant human AChE (Homo sapiens, UniProt P22303). Conditions: historical data, identical conditions except DMSO; cited from earlier work.
The conditions of data set [14]: reported for 2-PAM; cited from earlier work.

Regarding `CC(C)(C)OC(=O)N1CC(NC(=O)/C=N/O)C1`, the “PAMPA Peff (mean)” value in data set [1] was determined as 1.24e-06 cm/s. The “MDR1 (net flux ratio) (mean)” value in [2] is recorded as 1.25. Besides, the “HCMEC Peff (mean)” value in data set [3] turned out to be 3.23e-05 cm/s.

Take `CN(C)CCNC(=O)/C=N/O`: in data set [1], the “PAMPA Peff (mean)” value stood at 1.01e-07 cm/s. Moreover, the “MDR1 (net flux ratio) (mean)” value in [2] was 0.36. In addition, the “HCMEC Peff (mean)” value in [3] turned out to be 1.79e-05 cm/s.

On to `O=C(/C=N/O)N1CCN(CCc2cccs2)CC1`, for which the “PAMPA Peff (mean)” value in data set [1] turned out to be 4.38e-06 cm/s. Besides, the “HCMEC Peff (mean)” value in data set [3] turned out to be 5.13e-05 cm/s.

Regarding `O=C(/C=N/O)NCc1ccccc1`, the “PAMPA Peff (mean)” value in data set [1] worked out at 1.47e-06 cm/s. Moreover, the “HCMEC Peff (mean)” value in data set [3] is 5.49e-05 cm/s.

Consider `CC(CN1CCCCCC1)NC(=O)/C=N/O` (centres unmarked), for which the “PAMPA Peff (mean)” value in [1] was 1.92e-07 cm/s. In addition, the “HCMEC Peff (mean)” value in data set [3] was 4.43e-05 cm/s.

As for `CN1CCCN(C(=O)/C=N/O)CC1`, in data set [3], the “HCMEC Peff (mean)” value stood at 7.36e-05 cm/s.

On to `CC1CCN(CC(C)NC(=O)/C=N/O)CC1` (centres unmarked), for which, in [1], the “PAMPA Peff (mean)” value was found to be 3.19e-07 cm/s. In addition, the “HCMEC Peff (mean)” value in data set [3] was 4.26e-05 cm/s.

Consider `O=C(/C=N/O)NCCN1CCCCCC1`, for which the results for the “PAMPA Peff (mean)” value in [1] and in data set [1] (listed as RS-194B) were 2.15e-07 cm/s and 2.1 ± 0.8 × 10^–7 cm/s, respectively. In addition, the brain:plasma ratio in data set [4] was 0.04. For the same compound, in data set [2], the “MDR1 (net flux ratio) (mean)” value turned out to be 0.72. The “HCMEC Peff (mean)” value was 2.59e-05 cm/s in data set [3] and 2.6 ± 1.4 × 10^–5 cm/s in data set [3] (listed as RS-194B).

With `O=C(/C=N/O)NCCN1CCOCC1`, the “PAMPA Peff (mean)” value in data set [1] worked out at 1.05e-07 cm/s. Besides, the “HCMEC Peff (mean)” value in data set [3] is 2.49e-05 cm/s.

Take `CC(C)CN1CCN(C(=O)/C=N/O)CC1`: the “PAMPA Peff (mean)” value in data set [1] is 1.88e-06 cm/s. In addition, the “MDR1 (net flux ratio) (mean)” value in data set [2] was 1.27.

As for `O=C(/C=N/O)N1CCN(CC2CCCC2)CC1`, the “PAMPA Peff (mean)” value in [1] is 3.37e-06 cm/s. Further, the “MDR1 (net flux ratio) (mean)” value in data set [2] is 0.75. In addition, the “HCMEC Peff (mean)” value in data set [3] stood at 7.24e-05 cm/s.

For the compound `CC(C)(C)OC(=O)NC1CCN(C(=O)/C=N/O)C1` (centres unmarked), in data set [3], the “HCMEC Peff (mean)” value stood at 1.94e-05 cm/s.

As for `O=C(/C=N/O)NC1CCCC1`, in data set [1], the “PAMPA Peff (mean)” value is 3.95e-06 cm/s. For the same compound, in data set [2], the “MDR1 (net flux ratio) (mean)” value is reported as 0.97. Also, the “HCMEC Peff (mean)” value in data set [3] was 6.04e-05 cm/s.

Consider `O=C(/C=N/O)NC1CCC1`, for which the “PAMPA Peff (mean)” value in [1] is 2.86e-06 cm/s.

Regarding `O=C(/C=N/O)N1CCCN(C(=O)/C=N/O)CC1`, the “PAMPA Peff (mean)” value in data set [1] was determined as 1.59e-07 cm/s. Besides, the “HCMEC Peff (mean)” value in [3] was 3.67e-05 cm/s.

As to `O=C(/C=N/O)N1CCC(N2CCCCC2)CC1`, in data set [3], the “HCMEC Peff (mean)” value was 5.67e-05 cm/s.

Take `CC(C)(C)OC(=O)N1CC[C@H](NC(=O)/C=N/O)C1`: the “PAMPA Peff (mean)” value in data set [1] turned out to be 1.57e-06 cm/s. Moreover, the “MDR1 (net flux ratio) (mean)” value in [2] came out at 8.90. Moreover, the “HCMEC Peff (mean)” value in data set [3] is 3.16e-05 cm/s.

For `CC(CN1CCCCC1)NC(=O)/C=N/O` (centres unmarked), in [1], the “PAMPA Peff (mean)” value is 1.58e-07 cm/s. Besides, the “HCMEC Peff (mean)” value in data set [3] came out at 1.11e-05 cm/s.

For `C[C@@H](CN1CCc2ccccc2CC1)NC(=O)/C=N/O`, the “PAMPA Peff (mean)” value in [1] worked out at 2.68e-06 cm/s.

Take `O=C(/C=N/O)N1CCN(Cc2ccc(Cl)cc2)CC1`: the “PAMPA Peff (mean)” value in [1] was 4.67e-06 cm/s. The “MDR1 (net flux ratio) (mean)” value in data set [2] is on record as 0.64. In addition, the “HCMEC Peff (mean)” value in data set [3] was determined as 5.68e-05 cm/s.

For `CCN(CC)CC(C)NC(=O)/C=N/O` (centres unmarked), the “PAMPA Peff (mean)” value in data set [1] is 1.96e-08 cm/s. Moreover, in data set [3], the “HCMEC Peff (mean)” value was determined as 4.55e-05 cm/s.

As for `O=C(/C=N/O)N1CCN(Cc2cccc(Cl)c2)CC1`, in data set [1], the “PAMPA Peff (mean)” value is 2.94e-06 cm/s. For the same compound, the “MDR1 (net flux ratio) (mean)” value in data set [2] worked out at 1.12.

Turning to `NCCNC(=O)/C=N/O`, the “PAMPA Peff (mean)” value in data set [1] stood at 1.05e-07 cm/s. In addition, in [2], the “MDR1 (net flux ratio) (mean)” value is recorded as 0.40. The “HCMEC Peff (mean)” value in [3] turned out to be 8.09e-06 cm/s.

For the compound `O=C(/C=N/O)NC1CC1`, the “PAMPA Peff (mean)” value in data set [1] stood at 1.39e-06 cm/s.

With `CC(C)(C)OC(=O)NCCNC(=O)/C=N/O`, the “PAMPA Peff (mean)” value in [1] is 2.94e-07 cm/s. Also, the “HCMEC Peff (mean)” value in [3] was determined as 5.11e-05 cm/s.

For the compound `C[C@@H](CN1CCCc2ccccc2C1)NC(=O)/C=N/O`, the “PAMPA Peff (mean)” value in data set [1] was 3.7 ± 1.3 × 10^–6 cm/s; in [1] (listed as 1, LLNL-02), 3.73e-06 cm/s. The “PAMPA permeability relative to compound 23” value in data set [1] (higher than compound 23) is given as more than 10 fold. In [5] (10 mg/kg IV dose), the “Cmax in the brain” value worked out at 4.25 ng/mg tissue. Further, the “brain accumulation as percent of the total administered dose” value in data set [5] (10 mg/kg LLNL-02) was determined as 0.61%. The “brain concentration/accumulation relative to RS-194B” value in data set [5] (10 mg/kg, same dose level, RS-194B data ref 30) came to 20 times. The compound also displayed a Brain/plasma in [5] (at Tmax, single IV 20 mg/kg 14C-LLNL-02, male guinea pigs) of 0.529. The “decrease of brain/plasma ratio over the time course” value in data set [5] (average for the 4 doses, 0.08 h–24 h) came to 62.7%. Besides, the “time of Cmax in the brain” value in [5] (post dose, first sampling time-point) is recorded as 5 min. In addition, the “Plasma stability (percent remaining)” value in [6] is reported as “greater than 90%”. The “MDR1 (net flux ratio) (mean)” value came out at 5.3 ± 1.3 in data set [2] and 5.31 in data set [2] (listed as 1, LLNL-02). In addition, the “HCMEC Peff (mean)” value in [3] was 3.9 ± 1.4 × 10^–5 cm/s; in data set [3] (listed as 1, LLNL-02) it was 3.9e-05 cm/s. For the same compound, in data set [3] (HCMEC Peff ratio, P = 0.0003), the “Endothelial permeability relative to diazepam” value is given as 0.5 fold. Further, the “Endothelial permeability relative to 2-PAM” value in data set [3] (HCMEC Peff ratio, P = 0.0007) was found to be 3.9 fold. The “Microsomal stability t1/2” value in [7] is given as “greater than 60 min”. In addition, the “t1/2 β relative to 2-PAM” value in data set [8] (longer than the range observed for 2-PAM) is listed as 2–3 times. Moreover, the t1/2α was 23.4 ± 0.6 min in data set [8] (single IV 1 mg/kg 14C-LLNL-02, male guinea pigs); 24 ± 1.2 min in [8] (single IV 5 mg/kg 14C-LLNL-02, male guinea pigs); 15 ± 1.8 min in [8] (single IV 10 mg/kg 14C-LLNL-02, male guinea pigs); 23.4 ± 3.6 min in data set [8] (single IV 20 mg/kg 14C-LLNL-02, male guinea pigs). For the same compound, the IC50 in [9] amounted to 1.5 µM; in [10], 7.4 µM.

Take `O=C(/C=N/O)NCCCN1CCCCC1`: in [1], the “PAMPA Peff (mean)” value is 3.03e-07 cm/s. The “MDR1 (net flux ratio) (mean)” value in [2] was found to be 0.51. The “HCMEC Peff (mean)” value in [3] stood at 5.35e-06 cm/s.

As for `CC(C)(C)OC(=O)N1CCCC(NC(=O)/C=N/O)C1` (centres unmarked), the “PAMPA Peff (mean)” value in [1] was 3.18e-06 cm/s. Also, the “MDR1 (net flux ratio) (mean)” value in data set [2] is given as 3.78. The “HCMEC Peff (mean)” value in [3] is 7.53e-05 cm/s.

In the case of `CCC(CN1CCCC1)NC(=O)/C=N/O` (centres unmarked), the “PAMPA Peff (mean)” value in data set [1] is 5.53e-08 cm/s. Moreover, the “HCMEC Peff (mean)” value in data set [3] turned out to be 5.86e-05 cm/s.

Consider `O=C(/C=N/O)NCCN1CCCC1`, for which the “PAMPA Peff (mean)” value in data set [1] stood at 2.93e-07 cm/s. The “MDR1 (net flux ratio) (mean)” value in data set [2] came to 0.46. For the same compound, the “HCMEC Peff (mean)” value in data set [3] came to 3.14e-05 cm/s.

As for `C[n+]1ccccc1/C=N/O`, the “Fraction reactivated (t = 30 min) (mean)” value in data set [11] was 0.903. Moreover, in [12], the “Overall reactivation rate, kr2” value was 2.02 ± 0.483 M⁻¹ s⁻¹ and the “Reactivation rate, kr” value was 0.06 ± 0.005 min⁻¹. Also, in data set [13], the “Overall reactivation rate, kr2” value was 1.35 ± 0.267 M⁻¹ s⁻¹ and the “Reactivation rate, kr” value is 0.06 ± 0.02 min⁻¹. The t1/2α in data set [14] is 18.6 min.

Regarding `CN(C)C1CCN(C(=O)/C=N/O)C1` (centres unmarked), the “HCMEC Peff (mean)” value in data set [3] is 4.8e-05 cm/s.

Turning to `CCCCNC(=O)/C=N/O`, in [1], the “PAMPA Peff (mean)” value was 6.05e-06 cm/s. Also, the “MDR1 (net flux ratio) (mean)” value in [2] worked out at 1.14. Further, the “HCMEC Peff (mean)” value in data set [3] is 6.65e-05 cm/s.

On to `CC(CN(C)C)NC(=O)/C=N/O` (centres unmarked), for which the “HCMEC Peff (mean)” value in [3] turned out to be 1.1e-05 cm/s.
